In this assay the test system is MAGL. As to the kind of experiment: Competitive [3H]2-OG hydrolysis assay in pig brain homogenate. It counts as biochemical. How it is done: Enzymatic hydrolysis assay of novel ECs: the enzymatic hydrolysis of the ethanolamine derivatives JEA and ω-3 AEA and the glycerol derivatives 1/2-JG and ω-3 1/2-AG was evaluated in competitive hydrolysis assays using [^3H] AEA and [^3H] 2-OG, respectively. The reaction was performed using worm homogenate (200 or 100 µg per sample) or pig brain homogenate (200 µg per sample) in 194 μL of assay buffer (10 mM Tris-HCl, 1 mM EDTA, 0.1 % BSA, pH 8.0). Different concentrations of JEA and ω-3 AEA were co-incubated for 20 min at 37 °C with a mixture of 1 nM [^3H]AEA and unlabeled AEA (final 2µM), while 1/2-JG and ω-3 1/2-AG were co-incubated with a mixture of 1nM [^3H]2-OG and unlabeled 2-OG (final 100 nM). The reaction was stopped by adding 400 μL of ice-cold mixture CHCl3-CH3OH (1:1 v/v), and, subsequently, tubes were vortexed and centrifuged for 10 min at 4 °C and 10,000 rpm. Finally, the upper aqueous phase was transferred to scintillation vials and mixed with 3 mL of Ultima Gold scintillation liquid. Signal was detected with TRICARB 2100TR scintillation counter and results were analyzed with GraphPad Prism 5® and expressed as [^3H] AEA or [^3H] 2-OG hydrolysis (% of vehicle).

On to “Omega-3 1/2-arachidonoyl glycerol [ω-3 1/2-AG]”, for which the “hydrolysis by MAGL (competition with tritiated 2-OG)” value is “readily hydrolyzed”.
